# S100A4 inh HTS: S100A4-myosin IIA interaction inhibition; S100A4/TAMRA-MyoIIA peptide fluorescence polarization; hit rate 0.14% among 360,000; inhibition, % at 10.7 µM; P26447;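 active means mean inhibition of at least 70% across replicates, with every replicate also reaching that level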
#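 Test system: S100A4 monomer protein; Medium: HEPES pH 7.2 with CaCl2, KCl, NaCl, DTT, Triton; Probe or stimulus: TAMRA-labelled myosin IIA heavy-chain peptide probe, 5 nM; Doses: one dose per compound; Times: polarization read 5 min after assay mix addition, stable 5–60 min; Benchmarks: neutral control DMSO, positive control TFP.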
# UUG fidelity: alters start codon recognition fidelity in yeast. S. cerevisiae UUG-firefly luciferase reporter, luminescence/redox ratio. AID 602363. activity score, % at 18.7 µM. hit rate 0.13% among 350,000;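 active = replicate mean at a twofold rise or more, about +100% in these data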;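 note: firefly luciferase made from a UUG start codon reports start codon fidelity; reporter light over untreated wells divided by growth signal over untreated wells; some hits fall short of that in this replicate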
# FGF22 binding: FGF22 (human) thermal shift binding. Q9HCT0. recombinant FGF22 thermal shift, SYPRO orange fluorescence; percent of sucrose octasulfate shift, DMSO zero. activity (Tm shift, normalised), % at 9.99 µM. hit rate 1.5% among 340,000. AID 651658;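 active means mean Tm shift, scaled 0 neutral to 100 positive control, at about 1.3% or above, every replicate too, limit read from the data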
# SIRT5 inh: blocks human SIRT5 desuccinylation of peptide; inhibition, % at 15 µM; AID 652115; Purified SirT5, succinyl-peptide AMC, trypsin-coupled fluorescence; hit rate 1.1% among 330,000; Q9NXA8; in the data active means inhibition above about 15%
# ERp5 inh: ERp5 (human) disulfide isomerase inhibition. Q15084. ERp5 insulin aggregation, absorbance 650 nm, 90 min. inhibition, % at 9.99 µM. hit rate 0.05% among 350,000;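 active means mean replicate inhibition above about 25%, with every replicate also reaching it, limit read from the data, passing the limit was not always enough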
# PDI inh: blocks human protein disulfide isomerase activity; P07237; PDI insulin aggregation turbidity, A650, 90 min; inhibition, % at 10 µM; hit rate 0.052% among 350,000; AID 588391;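 active means mean inhibition across replicates of 30% or more, whatever share of single replicates reach that level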
# * marks the source's active call; other numbers are inactive results; x = no result given. Shown are actives, neighbours in structure and some others; about 2.2% of the full set was active somewhere.
SMILES,S100A4 inh HTS,UUG fidelity,FGF22 binding,SIRT5 inh,ERp5 inh,PDI inh
Cc1ccc(/C=C/C(=O)Nc2ccc(S(N)(=O)=O)cc2)o1,3,x,0,-3,5,-6
Cc1ccc(/C=C/C(=O)NCc2ccc(S(N)(=O)=O)cc2)o1,-4,x,43*,-1,14,-10
CN/N=C/c1ccc(C#N)cc1,6,x,43*,-4,8,6
Cc1ccc(S(=O)(=O)N2CCN(C(=O)c3ccccn3)CC2)cc1,-13,-14,43*,-3,0,0
O=C(c1ccccn1)N1CCN(S(=O)(=O)c2ccccc2)CC1,-1,-3,43*,10,5,-4
O=C(c1ccccn1)N1CCN(S(=O)(=O)c2ccc(F)cc2)CC1,-2,x,1,2,0,-10
CCOC(=O)c1ccc(S(=O)(=O)N2CCN(C(=O)c3ccccn3)CC2)cc1,1,-15,0,1,4,7
CC1(C)CC[C@]2(C(=O)O)CC[C@]3(C)C(=CC[C@@H]4[C@@]5(C)CC[C@H](O[C@@H]6O[C@H](C(=O)O)[C@@H](O)[C@H](O[C@@H]7OC[C@H](O)[C@H](O)[C@H]7O)[C@H]6O)C(C)(C)[C@@H]5CC[C@]43C)[C@@H]2C1,-6,6,0,x,-1,88*
CC(=O)N1C[C@@H]2[C@H](c3ccccc31)[C@@H](CO)N2C(=O)c1ccc(F)cc1,-31,1,0,1,-5,x
C[C@@H]1CN([C@H](C)CO)C(=O)c2cc(NC(=O)NC3CCCCC3)ccc2O[C@H]1CN(C)Cc1ccc(C(=O)O)cc1,2,18,0,2,1,x
CCCn1c2ccc(C)cc2c2nnc(SCCN3CCOCC3)nc21,0,-13,0,0,-1,0
CCCn1c2ccccc2c2nnc(SCCN3CCOCC3)nc21,-3,-20,0,19*,3,-6
CCCCCCCCCCCCCCCC[N+](C)(C)Cc1ccc(F)cc1,-12,x,-1,14,-16,41*
COc1cccc(-c2ccc3c(c2)O[C@@H](CN(C)C(=O)C2CC2)[C@@H](C)CN([C@H](C)CO)S3(=O)=O)c1,16,-1,0,-1,4,x
CO[C@@H]1CN(C)C(=O)c2cc(NS(C)(=O)=O)ccc2OC[C@H](C)N(CCC(F)(F)F)C[C@@H]1C,-5,6,0,3,-3,x
Cc1noc(C)c1CSCC(=O)Nc1ccccc1N1CCCC1,-7,-26,0,16*,-2,-3
Cc1ccc(N(C(C)C(=O)NCc2ccncc2)S(C)(=O)=O)cc1C (stereo unspecified),-1,-16,43*,-4,3,-7
O=C1OC(c2ccccc2)(c2ccccc2)c2ccsc21,-1,20,44*,x,-7,-2
C[C@@H]1CCCCO[C@H](CN(C)C(=O)Nc2ccccc2)[C@@H](C)CN([C@H](C)CO)C(=O)c2cc(NC(=O)c3ccccc3)ccc2O1,9,12,0,-2,1,x
COc1ccc(-c2ccc([C@H]3[C@@H](CO)N4C(=O)CNC[C@@H]34)cc2)cc1,0,x,x,-4,17,x

# 2 compounds from above, showing only PDI inh and UUG fidelity.
SMILES | PDI inh | UUG fidelity
Cc1ccc(S(=O)(=O)N2CCN(C(=O)c3ccccn3)CC2)cc1 | 0 | -14
O=C(c1ccccn1)N1CCN(S(=O)(=O)c2ccccc2)CC1 | -4 | -3

# Remaining list, next part
SMILES,S100A4 inh HTS,UUG fidelity,FGF22 binding,SIRT5 inh,ERp5 inh,PDI inh
CCC(=O)/C=C1/Sc2ccc(OC)cc2N1CCO,-6,x,43*,6,-1,-2
CCC(=O)/C=C1/Sc2ccc(OC)cc2N1CC,-3,-15,0,3,-6,-1
Cc1ccc(NC(=O)C2CCN(C(=O)c3ccco3)CC2)cc1C,0,-6,0,79*,0,-9
CC(=O)Nc1cccc(NC(=O)C2CCN(C(=O)c3ccco3)CC2)c1,-3,-20,0,-1,0,11
COc1ccc(NC(=O)COc2nc3ccccc3nc2N2CCOCC2)c(OC)c1,-3,x,43*,-1,3,-2
C[C@@H]1CN([C@@H](C)CO)S(=O)(=O)c2ccc(-c3cccnc3)cc2O[C@@H]1CN(C)C(=O)CC1CC1,4,-12,-1,1,-1,x
C[C@@H]1CCCCO[C@@H](CN(C)CC2CCCCC2)[C@H](C)CN([C@H](C)CO)C(=O)c2cc(NC(=O)CCCCCC(=O)Nc3ccccc3N)ccc2O1,-1,-10,0,20*,2,x
C[C@H](CO)N1C[C@H](C)[C@H](CN(C)CC2CCCCC2)OCCCC[C@H](C)Oc2ccc(NC(=O)CCCCCC(=O)Nc3ccccc3N)cc2C1=O,-7,-4,1,-1,6,x
C[C@@H]1CCCCO[C@@H](CN(C)C(=O)C2CCCCC2)[C@@H](C)CN([C@H](C)CO)C(=O)c2cc(NC(=O)CCCCCC(=O)Nc3ccccc3N)ccc2O1,103*,20,-1,6,-1,x
C[C@@H]1CN([C@H](C)CO)C(=O)c2cc(NC(=O)CCCCCC(=O)Nc3ccccc3N)ccc2O[C@@H](C)CCCCO[C@@H]1CN(C)C(=O)C1CCCCC1,5,32,0,6,0,x
COC(=O)[C@H]1[C@H](CO)[C@H]2Cn3c(ccc(-c4ccccc4)c3=O)[C@H]2N1CCc1ccccc1,2,x,0,-2,0,x
Cc1ccc(S(=O)(=O)NNC(=O)C2CCCCC2)cc1,4,-17,0,-3,1,2
O=C(NNS(=O)(=O)c1ccc(Br)cc1)C1CCCCC1,-1,x,43*,-1,5,7
CCc1ccc(C(=O)CN2C(=O)NC(C)(c3ccc(C)cc3)C2=O)cc1 (stereo unspecified),-4,-3,43*,-4,-1,-3
Cc1ccc(C2(C)NC(=O)N(CC(=O)c3ccc4c(c3)OCCO4)C2=O)cc1 (stereo unspecified),-3,8,0,-1,2,-2
O=C(CCN1C(=O)/C(=C/c2ccc(Cl)cc2)SC1=S)Nc1cccc(C(=O)O)c1,-4,0,0,-1,1,-2
O=C(O)c1cccc(N2C(=O)/C(=C/c3ccc(SCc4ccc(Cl)cc4)o3)SC2=S)c1,5,x,x,21*,-2,2
CC(C)(Cc1cccc(CC(C)(C)C(=O)O)c1)C(=O)O,19,0,17*,2,2,-1
O=C1NC(=O)/C(=C/c2ccc(-c3cc(C(=O)O)ccc3Cl)o2)S1,-2,-2,0,26*,1,-2
Cc1noc(C)c1S(=O)(=O)Nc1ccc2c(c1)C(=O)N([C@@H](C)CO)C[C@H](C)[C@H](CN(C)S(=O)(=O)c1cccs1)OCCCC[C@@H](C)O2,x,x,0,x,x,x
O=C(O)C1CN(c2ncccc2[N+](=O)[O-])C1,1,-8,43*,1,-1,0
N#CCC(=O)c1ccccc1Oc1ccc(Cl)cc1,-1,x,44*,0,1,0
Cc1ccc(S(=O)(=O)N2CC[C@@H]3[C@H]2c2cc(C#Cc4ccc(F)cc4)ccc2N[C@@H]3CO)cc1,0,-3,0,4,2,x

# Profiles from above. Values in the order: S100A4 inh HTS	UUG fidelity	FGF22 binding	SIRT5 inh	ERp5 inh	PDI inh
# `Cc1noc(C)c1CSCC(=O)Nc1ccccc1N1CCCC1` is entered as -7	-26	0	16*	-2	-3
# `CCCn1c2ccccc2c2nnc(SCCN3CCOCC3)nc21` is entered as -3	-20	0	19*	3	-6
# `O=C1NC(=O)/C(=C/c2ccc(-c3cc(C(=O)O)ccc3Cl)o2)S1` is entered as -2	-2	0	26*	1	-2

# Screening results: PubChem, Broad Institute
